Where “and” joins values, the source holds several entries; their conditions need not be identical. Identical values can stand only once.
Target: D(2) dopamine receptor (Rattus norvegicus, UniProt P61169)

Amino acid sequences for entries named in this document (tags omitted).
UniProt P61169, whole entry: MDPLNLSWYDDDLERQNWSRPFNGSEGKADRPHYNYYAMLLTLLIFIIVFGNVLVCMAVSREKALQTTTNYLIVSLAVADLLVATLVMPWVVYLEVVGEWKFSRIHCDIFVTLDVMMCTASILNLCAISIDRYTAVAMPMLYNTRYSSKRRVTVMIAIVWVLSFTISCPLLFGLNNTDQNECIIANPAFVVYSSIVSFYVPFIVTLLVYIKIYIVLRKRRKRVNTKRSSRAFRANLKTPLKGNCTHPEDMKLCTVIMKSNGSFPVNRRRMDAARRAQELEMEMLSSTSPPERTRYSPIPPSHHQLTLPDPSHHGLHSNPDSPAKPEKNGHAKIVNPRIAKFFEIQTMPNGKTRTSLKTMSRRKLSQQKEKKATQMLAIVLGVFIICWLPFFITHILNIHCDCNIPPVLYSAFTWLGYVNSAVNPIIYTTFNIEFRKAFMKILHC

Compound	Ki
CN1CCN2c3ccccc3Cc3ccccc3[C@H]2C1 [MIANSERIN (+)]	1.69 µM and 0.674 µM and 1.7 µM
NCCc1c[nH]c2ccc(O)cc12 [[3H]-5-HT]	7.95 µM and > 10 µM

Source: BindingDB's records for doi:10.1002/syn.890150302 (Vanderbilt University, 1993)
